# AlphaSeq binding of Ab-14 light chain variants to a spike HR2 peptide

Data: MIT Lincoln Laboratory AlphaSeq set, Engelhart et al. 2022, doi:10.1038/s41597-022-01779-4, as distributed in FLAb.

Binding partner: SARS-CoV-2 spike HR2 peptide, sequence PDVDLGDISGINAS.

The variants keep the heavy chain, the linker and the frameworks of Ab-14 (scFv order VH, the linker GGGGSGGGGSGGGGS, VL).
VH: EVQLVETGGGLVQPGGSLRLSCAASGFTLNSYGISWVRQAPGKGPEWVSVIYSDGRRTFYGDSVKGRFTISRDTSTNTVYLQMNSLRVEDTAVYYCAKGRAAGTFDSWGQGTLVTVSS
VL: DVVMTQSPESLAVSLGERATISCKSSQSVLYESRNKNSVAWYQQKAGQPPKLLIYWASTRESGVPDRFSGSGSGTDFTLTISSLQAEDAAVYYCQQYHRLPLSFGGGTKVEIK

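The parent was found by panning a naive human phage display library on the peptide. Variants in AAYL50 differ from the parent at up to three CDR positions; double and triple changes were sampled at random. Affinity was read by AlphaSeq, a pooled yeast mating assay with surface-displayed partners. The frequency of each diploid, read from paired DNA barcodes, reflects how well the two displayed proteins bind. Scores were corrected for input abundance and mapped to Kd with protein pairs of known affinity run in the same pool. The assay was run in three technical replicates.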

Substitutions are numbered in sequence along the VL above, starting at 1 (not Kabat).
Values are apparent Kd, the geometric mean of the replicates that gave a signal; lower means stronger binding.
A pair that was not seen in any replicate is written "no signal"; this usually means weak binding, but a binder can also be missed.
Order: sorted from the lowest average up, undetected variants last.
Empty control strains, which show no peptide, gave a signal in 18% of pairings with library AAYL50; the median was 15 µM and 95% of these signals were weaker than 970 nM. No background was subtracted. Also given: how often the same scFv was detected with the empty control strains.
For reference, the parent read 4.4 nM as the reference entry and 48 nM as a member of this library.

Kd	detected	empty controls	changes
2.6 nM	3/3	2/9	S25I+N37K+S62D
3.0 nM	3/3	8/9	S26T+S38N
3.2 nM	3/3	4/9	S26P+W56N+R99Q
5.7 nM	3/3	3/9	L30V+S62A
7.1 nM	3/3	1/9	Y31H+A57G+T59I
7.6 nM	3/3	0/9	S25M+Y31F+Q95I
9.0 nM	3/3	2/9	L102R+S103R
14 nM	3/3	2/9	K36V+E61A
22 nM	3/3	0/9	Q96N+Y97W+P101G
29 nM	3/3	1/9	S26A+W56M+S58N
32 nM	1/3	0/9	N37D+S62G+Y97F
32 nM	3/3	3/9	S33E+S103E
42 nM	3/3	4/9	W56F+E61M+S103C
50 nM	3/3	0/9	Q27G+V29H+L100H
57 nM	3/3	2/9	Y97N+L102G+S103P
64 nM	3/3	9/9	V29F+Y31M+S103F
82 nM	3/3	0/9	S28N+E32R+R99G
110 nM	3/3	6/9	E32W+E61A
120 nM	3/3	1/9	S28V+S62G+Q96T
200 nM	3/3	1/9	L30R+S33H+L100T
370 nM	3/3	5/9	S28C+K36C+Y97Q
470 nM	1/3	1/9	N35Y+Q95M+R99Y
690 nM	1/3	0/9	V29C+N37T+S62G
750 nM	1/3	1/9	E32C+T59S
890 nM	3/3	2/9	N35E+A57T+Y97M
970 nM	3/3	1/9	N35F+A40F+Q96K
990 nM	1/3	0/9	V29A+A57R+E61Q
1.1 µM	3/3	0/9	L30P+T59F+E61L
1.8 µM	2/3	0/9	V39W+H98F+P101I
1.9 µM	3/3	2/9	K24S+S26F+E61P
2.1 µM	2/3	0/9	S33Y+R34W+V39M
3.2 µM	2/3	0/9	K24M+N37Q+E61I
4.3 µM	2/3	2/9	S38E+A40F+S62T
5.4 µM	2/3	3/9	Q27R+N35S+S58P
7.4 µM	1/3	0/9	R99V+L100W
9.9 µM	2/3	2/9	S25N+Q27H+E61T
12 µM	1/3	1/9	K24E+S38D+Q95R
12 µM	1/3	1/9	S28Q+L100M+S103M
16 µM	1/3	1/9	E32G+Q95G+L100H
21 µM	2/3	3/9	L30I+W56H+P101H
24 µM	2/3	3/9	A57F+P101L+S103E
26 µM	1/3	2/9	W56M+Q96K+Y97C
52 µM	3/3	3/9	S25F+Y97A+L100P
110 µM	2/3	6/9	A57E+H98I+L100G
130 µM	3/3	5/9	E32Y+R60N
150 µM	3/3	5/9	K36N+A40K
200 µM	2/3	3/9	K24I+K36W+A57I
730 µM	1/3	3/9	E32N+S58P+R99D
960 µM	1/3	2/9	S38V+A40N+P101H
no signal	0/3	1/9	N37V+S38Y+A40T
no signal	0/3	0/9	S26L+R60W+H98M
no signal	0/3	0/9	V29W+P101Q+S103E
no signal	0/3	1/9	V29F+V39Y+L102Q
no signal	0/3	0/9	V39N+A40L+R99K
no signal	0/3	1/9	S28R+E32T+A57R
no signal	0/3	0/9	N37D+S58H
no signal	0/3	0/9	S28L+Q96Y+L102K
no signal	0/3	1/9	K24S+Q95W+P101E
no signal	0/3	0/9	Y31Q+A40D+T59G
no signal	0/3	2/9	S25K+S33D+A40N
no signal	0/3	0/9	E61H+H98R+R99H
no signal	0/3	2/9	S33W+K36Q+A40N
no signal	0/3	0/9	E32R+R34Y+P101Q
no signal	0/3	1/9	L30F+E32P+L102K
no signal	0/3	1/9	K24N+S33C
no signal	0/3	0/9	L30F+N35I+Y97V
no signal	0/3	1/9	S33I+Y97Q+H98E
no signal	0/3	0/9	K36I+R60Y+L102V
no signal	0/3	3/9	K36Q+Y97N+L102W
no signal	0/3	0/9	N35P+V39F+R60V

Extract of 9 entries:

| changes | Kd | detected | empty controls |
|---|---|---|---|
| K36I+R60Y+L102V | no signal | 0/3 | 0/9 |
| V29W+P101Q+S103E | no signal | 0/3 | 0/9 |
| K24N+S33C | no signal | 0/3 | 1/9 |
| E32G+Q95G+L100H | 16 µM | 1/3 | 1/9 |
| V29F+Y31M+S103F | 64 nM | 3/3 | 9/9 |
| S25K+S33D+A40N | no signal | 0/3 | 2/9 |
| S28Q+L100M+S103M | 12 µM | 1/3 | 1/9 |
| A57F+P101L+S103E | 24 µM | 2/3 | 3/9 |
| V29F+V39Y+L102Q | no signal | 0/3 | 1/9 |